The structures appear in SMILES notation. This is a selection; strong and weak results do not stand in their true shares. Active and inactive are the calls of the source.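 Rule for the calls: active = viability gain under doxorubicin at or above a set limit, the compound median plus 3 SD (cut at about 4.7% in these data); inactive = the rest.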

The nature of the assay: protection of MRP-1-high cells against doxorubicin toxicity – H69AR cells, CellTiter-Glo, MRP-1 activator project, primary screen (AID 799).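 Note: MRP-1 overexpressing cells given doxorubicin 25 µM after compound pretreatment; 18-22 h compound pretreatment then 72 h with doxorubicin before readout; 0% = doxorubicin-only wells and 100% = vehicle-treated cells without doxorubicin.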 The note with it: viability rescue, at 10 µM, active compounds read high.
In the case of `O=C(NCC1(N2CCOCC2)CCCCC1)c1cc(=O)[nH]c2ccccc12`, the viability increase was inactive: -2.13%. With `CN1CCN(CCOC(=O)C(O)(c2ccccc2)c2ccccc2)CC1` the figure was inactive: -1.18%; with `N#CC1(Nc2ccccc2)CCN(CCc2ccccc2)CC1`, inactive: -3.45%; with `COc1ccc(NC2CCN(CCc3ccccc3)CC2)c(OC)c1`, inactive: -2.75%. As for `O=C(NCC1(N2CCOCC2)CCCCC1)c1cc2ccccc2o1`, the viability increase was inactive: -2.63%. The figure for `O=C(OC1CN2CCC1CC2)C1c2ccccc2Oc2ccccc21` (stereo not drawn) is inactive: -3.23%. With `CCC(CO)(C(=O)OC1CN2CCC1CC2)c1ccccc1` (stereo not drawn) the figure was inactive: -0.79%; with `CCOc1ncccc1C(=O)NCC1(N2CCOCC2)CCCCC1`, inactive: -1.33%.

`CCN1CCC(Nc2cccc(F)c2)CC1`: the viability increase was inactive: -0.32%. For the molecule `Fc1ccccc1NC1CCN(Cc2ccccc2)CC1`, the viability increase is inactive: -2.4%.

For the molecule `c1ccc(CN2CCC(Nc3ccccc3)CC2)cc1`, the viability increase was inactive: -1.26%.

As to `N/C(=N\O)c1c(N)no[n+]1[O-]`, the viability increase was inactive: -1.31%. Consider `O=C(OC1CN2CCC1CC2)C1c2ccccc2C=Cc2ccccc21` (stereo not drawn), for which the viability increase is inactive: -3.03%.

Source of the values: PubChem BioAssay AID799 (SRMLSC, 2007).
